In patent US20090005270A1 (priority 2005, published 2009):

Assay: Propofol detection in exhaled breath of volunteers (Hazmatcad SAW sensor, SPME GC-MS)

## CC(C)c1cccc(C(C)C)c1O
Calculated effect site concentration 0.3 μg/mL (FIG. 8)
  GC-MS propofol peak abundance in exhaled breath: 1,200,000 counts
Calculated effect site concentration 0.5 μg/mL (FIG. 6)
  GC-MS propofol peak abundance in exhaled breath: 80,000 counts
Calculated effect site concentration 1.0 μg/mL (FIG. 7)
  GC-MS propofol peak abundance in exhaled breath: 2,200,000 counts
Single subject, semiquantitative
  exhaled breath concentration (SPME and Hazmatcad) versus measured blood propofol concentration: did correlate
volunteers, low sedative doses
  detection in exhaled breath samples using the Hazmatcad: detected in all exhaled breath samples
